Experiments:
Format in all cases: cell-based
[1] = target: T1, LBAT (Homo sapiens, UniProt Q14973); experiment: Electrogenic transport in Xenopus oocytes expressing LBAT
[2] = target: T1, LBAT; experiment: Inhibition of radiolabeled taurocholate uptake in LBAT-transfected CHO cells; conditions: radiolabeled competition assay in transporter-expressing CHO cells
[3] = target: T2, IBAT (Homo sapiens, UniProt Q12908); experiment: Inhibition of radiolabeled taurocholate uptake in IBAT-transfected CHO cells; conditions: radiolabeled competition assay in transporter-expressing CHO cells
[4] = target: T2, IBAT; experiment: Electrogenic transport in Xenopus oocytes expressing IBAT; conditions: for % Max. (GDC): relative to glycodeoxycholate

Protein sequences, listed by entry. Tags and fused reporters are not part of them.
UniProt Q14973, whole entry: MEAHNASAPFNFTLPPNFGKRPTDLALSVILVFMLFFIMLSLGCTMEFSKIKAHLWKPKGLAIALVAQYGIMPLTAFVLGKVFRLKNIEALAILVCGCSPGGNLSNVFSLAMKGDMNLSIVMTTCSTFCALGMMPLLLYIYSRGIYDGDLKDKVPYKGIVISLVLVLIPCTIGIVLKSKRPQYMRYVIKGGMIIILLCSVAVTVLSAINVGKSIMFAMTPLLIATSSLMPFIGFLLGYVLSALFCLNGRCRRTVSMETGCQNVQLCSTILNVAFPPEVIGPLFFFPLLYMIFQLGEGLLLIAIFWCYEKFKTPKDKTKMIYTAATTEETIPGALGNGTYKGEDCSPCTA
UniProt Q12908, whole entry: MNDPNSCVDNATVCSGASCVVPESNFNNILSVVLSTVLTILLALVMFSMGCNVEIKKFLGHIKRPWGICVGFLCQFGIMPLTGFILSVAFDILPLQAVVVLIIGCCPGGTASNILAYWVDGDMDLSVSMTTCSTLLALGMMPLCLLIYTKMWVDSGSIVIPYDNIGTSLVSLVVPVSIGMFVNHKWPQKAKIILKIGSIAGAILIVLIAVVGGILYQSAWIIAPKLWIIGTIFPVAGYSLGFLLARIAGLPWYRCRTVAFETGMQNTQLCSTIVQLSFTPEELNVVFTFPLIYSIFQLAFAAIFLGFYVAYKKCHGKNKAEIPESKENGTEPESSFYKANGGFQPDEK

Compound: COC(=O)CC1(CNC(=O)O[C@@H]2CC[C@@]3(C)[C@@H](C2)C[C@@H](O)[C@@H]2[C@@H]3C[C@H](O)[C@]3(C)[C@@H]([C@H](C)CCC(=O)O)CC[C@@H]23)CCCCC1
- EC50 [1]: 31 µM
- % Max. (GDC) ([1]; relative to glycodeoxycholate): 140%
- IC50 [2]: 0.7 µM
- IC50 [3]: > 100 µM
- EC50 [4]: > 100 µM
- % Max. (GDC) [4]: 0%

Compound: COC(=O)CC1(CNC(=O)OCCCCCC(=O)O[C@@H]2CC[C@@]3(C)[C@@H](C2)C[C@@H](O)[C@@H]2[C@@H]3C[C@H](O)[C@]3(C)[C@@H]([C@H](C)CCC(=O)NCC(=O)O)CC[C@@H]23)CCCCC1
- IC50 [2]: 1.7 µM
- IC50 [3]: 7 µM
- EC50 [4]: 58 µM
- % Max. (GDC) [4]: 28%

Reference: patent publication US20050054559A1, “Compounds for sustained release of orally delivered drugs” (priority 2000, published 2005)
